Target: Histone deacetylase 4 (Homo sapiens, UniProt P56524)
Assay: Inhibition of recombinant HDAC4 (unknown origin) using Boc-Lys (trifluoroacetyl) AMC as substrate preincubated for 1 hr followed by substrate addition and measured after 2 hrs by fluorescence based microplate reader analysis

By UniProt entry, the sequences of proteins in these tests, tags left out. Where a name states a change or a piece, a line headed by the entry shows the natural chain unless it says otherwise.
UniProt P56524: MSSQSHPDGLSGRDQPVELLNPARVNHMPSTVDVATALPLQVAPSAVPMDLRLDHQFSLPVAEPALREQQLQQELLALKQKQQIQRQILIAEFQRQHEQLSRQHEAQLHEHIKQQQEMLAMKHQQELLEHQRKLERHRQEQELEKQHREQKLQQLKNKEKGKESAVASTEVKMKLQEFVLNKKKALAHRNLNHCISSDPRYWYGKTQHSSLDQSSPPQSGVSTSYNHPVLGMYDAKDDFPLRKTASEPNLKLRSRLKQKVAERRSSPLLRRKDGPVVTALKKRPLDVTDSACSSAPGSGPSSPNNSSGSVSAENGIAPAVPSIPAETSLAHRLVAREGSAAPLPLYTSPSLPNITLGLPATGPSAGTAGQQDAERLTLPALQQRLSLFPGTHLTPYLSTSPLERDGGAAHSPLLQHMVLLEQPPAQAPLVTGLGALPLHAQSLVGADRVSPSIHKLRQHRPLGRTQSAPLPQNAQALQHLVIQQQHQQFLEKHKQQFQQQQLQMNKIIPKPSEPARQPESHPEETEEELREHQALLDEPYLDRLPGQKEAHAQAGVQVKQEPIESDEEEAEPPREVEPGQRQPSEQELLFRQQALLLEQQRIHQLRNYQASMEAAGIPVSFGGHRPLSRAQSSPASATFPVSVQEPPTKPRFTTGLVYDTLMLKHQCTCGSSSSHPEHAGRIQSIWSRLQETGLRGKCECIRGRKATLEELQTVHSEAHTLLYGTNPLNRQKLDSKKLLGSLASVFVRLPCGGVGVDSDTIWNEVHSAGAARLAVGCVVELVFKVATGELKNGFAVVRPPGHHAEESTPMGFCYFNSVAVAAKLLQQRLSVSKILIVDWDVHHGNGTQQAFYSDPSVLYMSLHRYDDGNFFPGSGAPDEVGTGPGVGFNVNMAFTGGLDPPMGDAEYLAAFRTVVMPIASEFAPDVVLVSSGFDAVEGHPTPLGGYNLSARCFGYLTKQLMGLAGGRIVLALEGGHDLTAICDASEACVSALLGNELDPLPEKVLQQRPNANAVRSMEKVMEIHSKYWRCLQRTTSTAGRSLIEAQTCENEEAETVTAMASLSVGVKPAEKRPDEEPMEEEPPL

## CN1CCc2c(c3ccccc3n2Cc2ccc(C(=O)NO)cc2)C1 [TUBASTATIN A]
  IC50: > 5 µM

Reference: ChEMBL document CHEMBL5113527, “First-in-Class Hydrazide-Based HDAC6 Selective Inhibitor with Potent Oral Anti-Inflammatory Activity by Attenuating NLRP3 Inflammasome Activation” (J Med Chem, 2022)
